Assay results published in US20160136299A1 (Sanofi, published 2016).

T1: TEM1 on SJSA-1 and A673 cells (UniProt Q9HCU0 18-757, limits assumed)
T1 sequence (looked up): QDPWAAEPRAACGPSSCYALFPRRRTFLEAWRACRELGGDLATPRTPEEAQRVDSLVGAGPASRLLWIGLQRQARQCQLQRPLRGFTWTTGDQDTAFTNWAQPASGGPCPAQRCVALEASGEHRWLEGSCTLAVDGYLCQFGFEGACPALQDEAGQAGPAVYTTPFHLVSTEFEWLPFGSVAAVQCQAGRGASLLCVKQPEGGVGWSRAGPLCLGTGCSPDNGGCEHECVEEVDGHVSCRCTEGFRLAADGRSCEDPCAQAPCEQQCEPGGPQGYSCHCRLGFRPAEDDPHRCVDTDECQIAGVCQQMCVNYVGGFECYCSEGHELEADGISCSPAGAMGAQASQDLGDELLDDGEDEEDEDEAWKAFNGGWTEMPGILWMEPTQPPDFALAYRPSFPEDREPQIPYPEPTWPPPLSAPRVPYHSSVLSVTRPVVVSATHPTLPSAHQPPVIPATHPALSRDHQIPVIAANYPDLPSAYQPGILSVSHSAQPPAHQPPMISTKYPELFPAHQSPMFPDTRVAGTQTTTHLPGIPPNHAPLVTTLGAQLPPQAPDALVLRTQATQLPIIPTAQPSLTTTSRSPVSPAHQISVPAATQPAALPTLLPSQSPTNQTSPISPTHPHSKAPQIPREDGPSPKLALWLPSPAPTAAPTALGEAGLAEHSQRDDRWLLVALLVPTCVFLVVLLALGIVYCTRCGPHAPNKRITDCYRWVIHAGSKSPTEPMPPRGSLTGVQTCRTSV


Target: T1, TEM1 on SJSA-1 and A673 cells
Assay: cell-based or functional assay

Row | Binder | IC50, cell proliferation assay, A673-DMEM-RPMI [µg/mL] | IC50, cell proliferation assay, SJSA-1 [µg/mL] | IC50, cell proliferation assay, A673-RPMI [µg/mL]
1 | antiTEM1 A114N-AO-MC-VC-PABC-MMAE (antibody, human IgG1, kappa, aminooxy-MC-VC-PABC-MMAE on galactose aldehyde (galactose oxidase) of the glycans, DAR 1.72) heavy: QVQLQESAPGLVKPSETLSLTCTVSGGSIRSYYWSWIRQPPGKGLEYIGYIYYTGSAIYNPSLQSRVTISVDTSKNQFSLKLNSVTAADTAVYYCAREGVRGASGYYYYGMDVWGQGTTVTVSSNSTKGPSVFPLAPSSKSTSGGTAALGCLVKDYFPEPVTVSWNSGALTSGVHTFPAVLQSSGLYSLSSVVTVPSSSLGTQTYICNVNHKPSNTKVDKKV[omitted - human IgG1 Fc] light: not shown | 2.2 | 3 | –
2 | antiTEM1-MC-VC-PABC-MMAE (antibody, human IgG1, kappa, MC-VC-PABC-MMAE by thiol conjugation; DAR not given) heavy: QVQLQESAPGLVKPSETLSLTCTVSGGSIRSYYWSWIRQPPGKGLEYIGYIYYTGSAIYNPSLQSRVTISVDTSKNQFSLKLNSVTAADTAVYYCAREGVRGASGYYYYGMDVWGQGTTVTVSSASTKGPSVFPLAPSSKSTSGGTAALGCLVKDYFPEPVTVSWNSGALTSGVHTFPAVLQSSGLYSLSSVVTVPSSSLGTQTYICNVNHKPSNTKVDKKV[omitted - human IgG1 Fc] light: not shown | 0.9 | 4 | 1
